Test results from ChEMBL document CHEMBL1154733, “Synthesis and in vitro opioid receptor functional antagonism of methyl-substituted analogues of (3R)-7-hydroxy-N-[(1S)-1-{[(3R,4R)-4-(3-hydroxyphenyl)-3,4-dimethyl-1-piperidinyl]methyl}-2-methylpropyl]-1,2,3,4-tetrahydro-3-isoquinolinecarboxamide (JDTic)” (J Med Chem, 2009).

Sequences of proteins named here, by UniProt entry; tags and fusion partners are left off.
UniProt P35372, whole entry: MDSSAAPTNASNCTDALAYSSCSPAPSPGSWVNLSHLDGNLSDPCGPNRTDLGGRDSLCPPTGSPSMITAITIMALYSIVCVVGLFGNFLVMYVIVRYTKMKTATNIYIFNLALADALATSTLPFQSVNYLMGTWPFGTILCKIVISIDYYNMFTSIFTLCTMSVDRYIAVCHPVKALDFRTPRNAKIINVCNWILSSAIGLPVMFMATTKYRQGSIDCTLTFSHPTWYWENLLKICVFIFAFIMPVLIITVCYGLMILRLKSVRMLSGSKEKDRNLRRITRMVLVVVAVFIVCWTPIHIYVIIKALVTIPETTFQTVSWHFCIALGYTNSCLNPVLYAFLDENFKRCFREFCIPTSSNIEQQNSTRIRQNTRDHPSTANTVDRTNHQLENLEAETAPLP
UniProt P41143, whole entry: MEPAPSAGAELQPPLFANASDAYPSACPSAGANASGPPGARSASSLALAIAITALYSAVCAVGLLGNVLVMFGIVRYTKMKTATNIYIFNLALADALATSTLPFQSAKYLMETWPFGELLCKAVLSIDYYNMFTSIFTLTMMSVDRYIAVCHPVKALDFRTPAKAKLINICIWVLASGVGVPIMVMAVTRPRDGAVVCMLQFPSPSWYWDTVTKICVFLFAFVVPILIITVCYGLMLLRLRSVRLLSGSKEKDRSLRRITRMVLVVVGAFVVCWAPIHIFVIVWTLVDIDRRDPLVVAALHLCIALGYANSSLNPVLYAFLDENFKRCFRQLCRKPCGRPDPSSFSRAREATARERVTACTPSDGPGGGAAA

Tests used:
[1] = target: Mu-type opioid receptor (Homo sapiens) (UniProt P35372); test: Antagonist activity at human cloned mu opioid receptor expressed in CHO cells assessed as inhibition of DAMGO-stimulated [35S]GTPgammaS binding; type: functional, cell-based
[2] = target: Delta-type opioid receptor (Homo sapiens) (UniProt P41143); test: Antagonist activity at human cloned delta opioid receptor expressed in CHO cells assessed as inhibition of DPDPE-stimulated [35S]GTPgammaS binding; type: functional, cell-based

Row | Structure (SMILES) | Ke [1] [nM] | Ke [2] [nM]
1 | CC[C@H](C)[C@@H](CN1CC[C@@](C)(c2cccc(OC)c2)[C@@H](C)C1)NC(=O)[C@@]1(C)Cc2ccc(O)cc2CN1 | 59.1 | –
2 | COc1cccc([C@]2(C)CCN(C[C@@H](NC(=O)[C@@]3(C)Cc4ccc(O)cc4CN3)C(C)C)C[C@@H]2C)c1 | 123 | –
3 | COc1ccc2c(c1)CN(C)[C@@](C)(C(=O)N[C@H](CN1CC[C@@](C)(c3cccc(O)c3)[C@@H](C)C1)C(C)C)C2 | – | 117
4 | COc1cccc([C@]2(C)CCN(C[C@@H](NC(=O)[C@@]3(C)Cc4ccc(OC)cc4CN3)C(C)C)C[C@@H]2C)c1 | 1450 | –
5 | CC[C@H](C)[C@@H](CN1CC[C@@](C)(c2cccc(OC)c2)[C@@H](C)C1)NC(=O)[C@H]1Cc2ccc(O)cc2CN1 | – | 1170
6 | CC[C@H](C)[C@@H](CN1CC[C@@](C)(c2cccc(O)c2)[C@@H](C)C1)NC(=O)[C@@]1(C)Cc2ccc(O)cc2CN1 | – | 149
